In FireProtDB (doi:10.1110/ps.840101):

B1: Alpha-1-antitrypsin, P01009 (parent)
chain: MPSSVSWGILLLAGLCCLVPVSLAEDPQGDAAQKTDTSHHDQDHPTFNKITPNLAEFAFSLYRQLAHQSNSTNIFFSPVSIATAFAMLSLGTKADTHDEILEGLNFNLTEIPEAQIHEGFQELLRTLNQPDSQLQLTTGNGLFLSEGLKLVDKFLEDVKKLYHSEAFTVNFGDTEEAKKQINDYVEKGTQGKIVDLVKELDRDTVFALVNYIFFKGKWERPFEVKDTEEEDFHVDQVTTVKVPMMKRLGMFNIQHCKKLSSWVLLMKYLGNATAIFFLPDEGKLQHLENELTHDIITKFLENEDRRSASLHLPKLSITGTYDLKSVLGQLGITKVFSNGADLSGVTEEAPLKLSKAVHKAVLTIDEKGTEAAGAMFLEAIPMSIPPEVKFNKPFVFLMIEQNTKSPLFMGKVVNPTQK

Variants of: B1
Details: Homo sapiens; pH 6.5; 25 °C; GdnHCl; Fluorescence; phosphate 10 mM; NaCl 50 mM; reversible: Unknown; structure 1QLP; whole UniProt chain shown
With MPSSVSWGILLLAGLCCLVPVSLAEDPQGDAAQKTDTSHHDQDHPTFNKITPNLAEFAFSLYRQLAHQSNSTNIFFSPVSIATAFAMLSLGTKADTHDEILEGLNFNLTEIPEAQIHEGFQELLRTLNQPDSQLQLTTGNGLFLSEGLKLVDKFLEDVKKLYHSEAFTVNFGDTEEAKKQINDYVEKGTQGKIVDLVKELDRDTVFALVNYIFFKGKWERPFEVKDTEEEDFHVDQVTTVKVPMMKRLGMFNIQHCKKLSSWVLLMKYLGNATAIFFLPDEGKLQHLENELTHDIITKFLENEDRRSISLHLPKLSITGTYDLKSVLGQLGITKVFSNGADLSGVTEEAPLKLSKAVHKAVLTIDEKGTEAAGAMFLEAIPMSIPPEVKFNKPFVFLMIEQNTKSPLFMGKVVNPTQK [A308I] the “ddG of mutation (higher = less stable)” value was 0 kcal/mol.
For MPSSVSWGILLLAGLCCLVPVSLAEDPQGDAAQKTDTSHHDQDHPTFNKITPNLAEFAFSLYRQLAHQSNSTNIFFSPVSIATAFAMLSLGTKADTHDEILEGLNFNLTEIPEAQIHEGFQELLRTLNQPDSQLQLTTGNGLFLSEGLKLVDKFLEDVKKLYHSEAFTVNFGDTEEAKKQINDYVEKGTQGKIVDLVKELDRDTVFALVNYIFFKGKWERPFEVKDTEEEDFHVDQVTTVKVPMMKRLGMFNIQHCKKLSSWVLLMKYLGNATIIFFLPDEGKLQHLENELTHDIITKFLENEDRRSASLHLPKLSITGTYDLKSVLGQLGITKVFSNGADLSGVTEEAPLKLSKAVHKAVLTIDEKGTEAAGAMFLEAIPMSIPPEVKFNKPFVFLMIEQNTKSPLFMGKVVNPTQK [A274I], the “ddG of mutation (higher = less stable)” value was 0.4 kcal/mol.
With MPSSVSWGILLLAGLCCLVPVSLAEDPQGDAAQKTDTSHHDQDHPTFNKITPNLAEFAFSLYRQLAHQSNSTNIFFSPISIATAFAMLSLGTKADTHDEILEGLNFNLTEIPEAQIHEGFQELLRTLNQPDSQLQLTTGNGLFLSEGLKLVDKFLEDVKKLYHSEAFTVNFGDTEEAKKQINDYVEKGTQGKIVDLVKELDRDTVFALVNYIFFKGKWERPFEVKDTEEEDFHVDQVTTVKVPMMKRLGMFNIQHCKKLSSWVLLMKYLGNATAIFFLPDEGKLQHLENELTHDIITKFLENEDRRSASLHLPKLSITGTYDLKSVLGQLGITKVFSNGADLSGVTEEAPLKLSKAVHKAVLTIDEKGTEAAGAMFLEAIPMSIPPEVKFNKPFVFLMIEQNTKSPLFMGKVVNPTQK [V79I] the “ddG of mutation (higher = less stable)” value was 0.2 kcal/mol.
With MPSSVSWGILLLAGLCCLVPVSLAEDPQGDAAQKTDTSHHDQDHPTFNKITPNLAEFAFSLYRQLAHQSNSTNIFFSPVSIATAFAMLSLGTKADTHDEILEGLNFNLTEIPEAQIHEGFQELLRTLNQPDSQLQLTTGNGLFLSEGLKLVDKFLEDVKKLYHSEAFTVNFGDTEEAKKQINDYVEKGTQGKIVDLVKELDRDTVFALVNYIFFKGKWERPFEVKDTEEEDFHVDQVTTVKVPMMKRLGMFNIQHCKKLSSWVLLMKYLGNATAIFFLPDEGKLQHLENELTHDIITKFLENEDRRSVSLHLPKLSITGTYDLKSVLGQLGITKVFSNGADLSGVTEEAPLKLSKAVHKAVLTIDEKGTEAAGAMFLEAIPMSIPPEVKFNKPFVFLMIEQNTKSPLFMGKVVNPTQK [A308V] the “ddG of mutation (higher = less stable)” value was -0.8 kcal/mol.
For MPSSVSWGILLLAGLCCLVPVSLAEDPQGDAAQKTDTSHHDQDHPTFNKITPNLPEFAFSLYRQLAHQSNSTNIFFSPVSIATAFAMLSLGTKADTHDEILEGLNFNLTEIPEAQIHEGFQELLRTLNQPDSQLQLTTGNGLFLSEGLKLVDKFLEDVKKLYHSEAFTVNFGDTEEAKKQINDYVEKGTQGKIVDLVKELDRDTVFALVNYIFFKGKWERPFEVKDTEEEDFHVDQVTTVKVPMMKRLGMFNIQHCKKLSSWVLLMKYLGNATAIFFLPDEGKLQHLENELTHDIITKFLENEDRRSASLHLPKLSITGTYDLKSVLGQLGITKVFSNGADLSGVTEEAPLKLSKAVHKAVLTIDEKGTEAAGAMFLEAIPMSIPPEVKFNKPFVFLMIEQNTKSPLFMGKVVNPTQK [A55P], the “ddG of mutation (higher = less stable)” value was -2.5 kcal/mol.
With MPSSVSWGILLLAGLCCLVPVSLAEDPQGDAAQKTDTSHHDQDHPTFNKITPNLAEFAFSLYRQLAHQSNSTNIFFSPVSIATAFAMLSLGTKADTHDEILEGLNFNLTEIPEAQIHEGFQELLRTLNQPDSQLQLTTGNGLFLSEGLKLVDKFLEDVKKLYHSEAFTVNFGDTEEAKKQINDYVEKGTQGKIVDLVKELDRDTVFALVNYIFFKGKWERPFEVKDTEEEDFHVDQVTTVKVPMMKRLGMFNIQHCKKLSSWVLLMKYLGNATAIFFLPDEGKLQHLENELTHDIITKFLENEDRRSASLHLPKLSITGTYDLKSVLGQLGITKVFSNGADLSGITEEAPLKLSKAVHKAVLTIDEKGTEAAGAMFLEAIPMSIPPEVKFNKPFVFLMIEQNTKSPLFMGKVVNPTQK [V345I] the “ddG of mutation (higher = less stable)” value was -0.6 kcal/mol.
With MPSSVSWGILLLAGLCCLVPVSLAEDPQGDAAQKTDTSHHDQDHPTFNKITPNLAEFAFSLYRQLAHQSNSTNIFFSPVSIATAFAMLSLGTKADTHDEILEGLNFNLTEIPEAQIHEGFQELLRTLNQPDSQLQLTTGNGLFLSEGLKLVDKFLEDVKKLYHSEAFTVNFGDTEEAKKQINDYVEKGTQGKIVDLVKELDRDTVFALVNYIFFKGKWERPFEVKDTEEEDFHVDQVTTVKVPMMKRLGMFNIQHCKKLSSWVLLMKYLGNATAIFFLPDEGKLQHLENELTHDIITKFLENEDRRSASLHLPKLSITGTYDLKSVLGQLGITKVFSNGADLSGVTEEAPLKLSKAVHKAVLTIDEKGTEAAGAMFLEAIPMSIPPEIKFNKPFVFLMIEQNTKSPLFMGKVVNPTQK [V388I] the “ddG of mutation (higher = less stable)” value was -0.4 kcal/mol.
In the case of MPSSVSWGILLLAGLCCLVPVSLAEDPQGDAAQKTDTSHHDQDHPTFNKITPNLLEFAFSLYRQLAHQSNSTNIFFSPVSIATAFAMLSLGTKADTHDEILEGLNFNLTEIPEAQIHEGFQELLRTLNQPDSQLQLTTGNGLFLSEGLKLVDKFLEDVKKLYHSEAFTVNFGDTEEAKKQINDYVEKGTQGKIVDLVKELDRDTVFALVNYIFFKGKWERPFEVKDTEEEDFHVDQVTTVKVPMMKRLGMFNIQHCKKLSSWVLLMKYLGNATAIFFLPDEGKLQHLENELTHDIITKFLENEDRRSASLHLPKLSITGTYDLKSVLGQLGITKVFSNGADLSGVTEEAPLKLSKAVHKAVLTIDEKGTEAAGAMFLEAIPMSIPPEVKFNKPFVFLMIEQNTKSPLFMGKVVNPTQK [A55L], the “ddG of mutation (higher = less stable)” value is reported as -0.9 kcal/mol.
With MPSSVSWGILLLAGLCCLVPVSLAEDPQGDAAQKTDTSHHDQDHPTFNKITPNLAEFAFSLYRQLAHQSNSTNIFFSPVSIATAFAMLSLGTKADTHDEILEGLNFNLTEIPEAQIHEGFQELLRTLNQPDSQLQLTTGNGLFLSEGLKLVDKFLEDVKKLYHSEAFTVNFGDTEEAKKQINDYVEKGTQGKIVDLVKELDRDTVFLLVNYIFFKGKWERPFEVKDTEEEDFHVDQVTTVKVPMMKRLGMFNIQHCKKLSSWVLLMKYLGNATAIFFLPDEGKLQHLENELTHDIITKFLENEDRRSASLHLPKLSITGTYDLKSVLGQLGITKVFSNGADLSGVTEEAPLKLSKAVHKAVLTIDEKGTEAAGAMFLEAIPMSIPPEVKFNKPFVFLMIEQNTKSPLFMGKVVNPTQK [A207L] the “ddG of mutation (higher = less stable)” value was -1.4 kcal/mol.
With MPSSVSWGILLLAGLCCLVPVSLAEDPQGDAAQKTDTSHHDQDHPTFNKITPNLAEFAFSLYRQLAHQSNSTNIFFSPVSIATAFAMLSLGTKADTHDEILEGLNFNLTEIPEAQIHEGFQELLRTLNQPDSQLQLTTGNGLFLSEGLKLVDKFLEDVKKLYHSEAFTVNFGDTEEAKKQINDYVEKGTQGKIVDLVKELDRDTVFFLVNYIFFKGKWERPFEVKDTEEEDFHVDQVTTVKVPMMKRLGMFNIQHCKKLSSWVLLMKYLGNATAIFFLPDEGKLQHLENELTHDIITKFLENEDRRSASLHLPKLSITGTYDLKSVLGQLGITKVFSNGADLSGVTEEAPLKLSKAVHKAVLTIDEKGTEAAGAMFLEAIPMSIPPEVKFNKPFVFLMIEQNTKSPLFMGKVVNPTQK [A207F] the “ddG of mutation (higher = less stable)” value was -1.5 kcal/mol.
For MPSSVSWGILLLAGLCCLVPVSLAEDPQGDAAQKTDTSHHDQDHPTFNKITPNLAEFAFSLYRQLAHQSNSTNIFFSPVSIATAFAMLSLGTKADTHDEILEGLNFNLTEIPEAQIHEGFQELLRTLNQPDSQLQLTTGNGLFLSEGLKLVDKFLEDVKKLYHSEAFTVNFGDTEEAKKQINDYVEKGTQGKIVDLVKELDRDTVFALVNYIFFKGKWERPFEVKDTEEEDFHVDQVTTVKVPMMKRLGMFNIQHCKKLSSWVLLMKYLGNITAIFFLPDEGKLQHLENELTHDIITKFLENEDRRSASLHLPKLSITGTYDLKSVLGQLGITKVFSNGADLSGVTEEAPLKLSKAVHKAVLTIDEKGTEAAGAMFLEAIPMSIPPEVKFNKPFVFLMIEQNTKSPLFMGKVVNPTQK [A272I], the “ddG of mutation (higher = less stable)” value was -2.2 kcal/mol.
For MPSSVSWGILLLAGLCCLVPVSLAEDPQGDAAQKTDTSHHDQDHPTFNKITPNLAEFAFSLYRQLAHQSNSTNIFFSPVSIATAFAMLSLGTKADTHDEILEGLNFNLTEIPEAQIHEGFQELLRTLNQPDSQLQLTTGNGLFLSEGLKLVDKFLEDVKKLYHSEAFTVNFGDTEEAKKQINDYVEKGTQGKIVDLVKELDRDTVFILVNYIFFKGKWERPFEVKDTEEEDFHVDQVTTVKVPMMKRLGMFNIQHCKKLSSWVLLMKYLGNATAIFFLPDEGKLQHLENELTHDIITKFLENEDRRSASLHLPKLSITGTYDLKSVLGQLGITKVFSNGADLSGVTEEAPLKLSKAVHKAVLTIDEKGTEAAGAMFLEAIPMSIPPEVKFNKPFVFLMIEQNTKSPLFMGKVVNPTQK [A207I], the “ddG of mutation (higher = less stable)” value was -1.8 kcal/mol.
In the case of MPSSVSWGILLLAGLCCLVPVSLAEDPQGDAAQKTDTSHHDQDHPTFNKITPNLAEFAFSLYRQLAHQSNSTNIFFSPVSIATAFAMLSLGTKADTHDEILEGLNFNLTEIPEAQIHEGFQELLRTLNQPDSQLQLTTGNGLFLSEGLKLVDKFLEDVKKLYHSEAFTVNFGDTEEAKKQINDYVEKGTQGKIVDLVKELDRDTVFALVNYIFFKGKWERPFEVKDTEEEDFHVDQVTTVKVPMMKRLGMFNIQHCKKLSSWVLLMKYLGNVTAIFFLPDEGKLQHLENELTHDIITKFLENEDRRSASLHLPKLSITGTYDLKSVLGQLGITKVFSNGADLSGVTEEAPLKLSKAVHKAVLTIDEKGTEAAGAMFLEAIPMSIPPEVKFNKPFVFLMIEQNTKSPLFMGKVVNPTQK [A272V], the “ddG of mutation (higher = less stable)” value is reported as -2.3 kcal/mol.
With MPSSVSWGILLLAGLCCLVPVSLAEDPQGDAAQKTDTSHHDQDHPTFNKITPNLAEFAFSLYRQLAHQSNSTNIFFSPVSIATAFAMLSLGTKADTHDEILEGLNFNLTEIPEAQIHEGFQELLRTLNQPDSQLQLTTGNGLFLSEGLKLVDKFLEDVKKLYHSEAFTVNFGDTEEAKKQINDYVEKGTQGKIVDLLKELDRDTVFALVNYIFFKGKWERPFEVKDTEEEDFHVDQVTTVKVPMMKRLGMFNIQHCKKLSSWVLLMKYLGNATAIFFLPDEGKLQHLENELTHDIITKFLENEDRRSASLHLPKLSITGTYDLKSVLGQLGITKVFSNGADLSGVTEEAPLKLSKAVHKAVLTIDEKGTEAAGAMFLEAIPMSIPPEVKFNKPFVFLMIEQNTKSPLFMGKVVNPTQK [V197L] the “ddG of mutation (higher = less stable)” value was 0.6 kcal/mol.
For MPSSVSWGILLLAGLCCLVPVSLAEDPQGDAAQKTDTSHHDQDHPTFNKITPNLAEFAFSLYRQLAHQSNSTNIFFSPVSIATAFAMLSLGTKADTHDEILEGLNFNLTEIPEAQIHEGFQELLRTLNQPDSQLQLTTGNGLFLSEGLKLVDKFLEDVKKLYHSEAFTVNFGDTEEAKKQINDYVEKGTQGKIVDLVKELDRDTVFVLVNYIFFKGKWERPFEVKDTEEEDFHVDQVTTVKVPMMKRLGMFNIQHCKKLSSWVLLMKYLGNATAIFFLPDEGKLQHLENELTHDIITKFLENEDRRSASLHLPKLSITGTYDLKSVLGQLGITKVFSNGADLSGVTEEAPLKLSKAVHKAVLTIDEKGTEAAGAMFLEAIPMSIPPEVKFNKPFVFLMIEQNTKSPLFMGKVVNPTQK [A207V], the “ddG of mutation (higher = less stable)” value was -3.8 kcal/mol.
